# Experimental data from patent US9637592B2, “Vitamin functionalized gel-forming block copolymers for biomedical applications” (International Business Machines Corporation, priority 2013, dated 2017).
# Assays:
# [1] = test system: BT474-tumor bearing mouse model; experiment: in vivo anti-tumor efficacy; design: species or system mice; conditions: 4×10 mg/kg weekly
# Protocol: Female BALB/c nude mice, weighing 18 g to 22 g were injected subcutaneously with 200 microliters of a cell suspension (1:1 with Matrigel) (BD Biosciences, U.S.A.) containing 5×10^6 BT474 cells. Three weeks after inoculation (when the tumor volume was 100 mm^3 to 120 mm^3), the tumor-bearing mice were randomly divided into several groups (7 to 10 mice per group). […] All mice were injected only once on the first day of treatment (Day 0). […] The tumor size was measured by calipers in two orthogonal diameters and the volume was calculated as L×W2/2, where L and W are the major and minor diameters respectively. At the end of the treatment, a two-tailed Student's t test was used to statistically evaluate the difference in tumor volume and P≦0.05 was considered to indicate a statistically significant difference. In addition, the toxicities of the different formulations were evaluated by monitoring the change in mouse body weight over the course of treatment.
# [2] = test system: HER2/neu-overexpressing human breast cancer BT474 cells; experiment: cytotoxicity of herceptin delivered by hydrogels (MTT); assay type: cell-based; conditions: 120 hours treatment; herceptin concentration
# BT474-tumor bearing mice = assay type: in vivo; conditions: 28 days after one injection, 30 mg/kg, regardless of formulation
# Text: For histological examination, the samples were fixed in 4% neutral buffered formalin and then stained with hematoxylin/eosin (H&E) using standard techniques. Apoptotic cells of tumor samples were identified using Terminal Transferase dUTP Nick-End Labeling (TUNEL) assay. The slides were counterstained with hematoxylin to visualize nuclei and examined using a stereomicroscope (Nikon, U.S.A.).
substance,measurement,setting,value
"herceptin: recombinant humanized mAb that selectively binds HER2 (Mw 145.5 kDa, Roche); solutions in HPLC grade water",tumor shrinkage by the end of the treatment,"[1]; intravenous, P=0.001",32%
same,tumor size over course of treatment,"[1]; subcutaneous, ~4 cm from tumor",remained similar in size
same,IC50,[2],< 5 µg/mL
same,TUNEL staining of tumor cells,BT474-tumor bearing mice,mostly apoptotic
